Results published in paper PMC8972196, “A Set of Experimentally Validated Decoys for the Human CC Chemokine Receptor 7 (CCR7) Obtained by Virtual Screening” (Frontiers in Pharmacology, 2022).

By UniProt entry, the sequences of proteins in these tests, tags left out.
UniProt P51681, whole entry: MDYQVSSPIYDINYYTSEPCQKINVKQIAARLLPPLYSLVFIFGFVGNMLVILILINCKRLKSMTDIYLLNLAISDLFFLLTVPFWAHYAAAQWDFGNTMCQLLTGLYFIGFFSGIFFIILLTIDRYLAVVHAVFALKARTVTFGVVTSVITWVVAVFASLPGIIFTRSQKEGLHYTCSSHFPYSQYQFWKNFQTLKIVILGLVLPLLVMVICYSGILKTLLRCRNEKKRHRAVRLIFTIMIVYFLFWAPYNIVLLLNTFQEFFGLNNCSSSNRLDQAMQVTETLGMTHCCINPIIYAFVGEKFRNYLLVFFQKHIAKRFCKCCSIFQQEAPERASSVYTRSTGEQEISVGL

Experiments:
human CCR5 = biological target: T1, human CCR5 (Homo sapiens, UniProt P51681); assay type: cell-based; details: result in words
T1 construct: expressed in transfected cells
Experimental: U87.CD4 cells that stably express either human CCR7, CXCR2, CCR5 or CXCR4 were seeded (20,000 cells/well) in gelatin-coated black-walled polystyrene 96-well plates with clear bottom and incubated overnight at 37°C and 5% CO2. The next day, a fluorescent Ca^2+-sensitive dye solution (Fluo-2 AM) was prepared as described before ([Claes et al., 2018]). Culture medium was removed, and cells were incubated for 45 min at room temperature in the dark. Meanwhile, 96-well polypropylene plates containing 5-fold concentrated compound dilutions and 5-fold concentrated solution of chemokine ligands (CCL19, CXCL8, LD78-β, CXCL12, respectively; all purchased from PeproTech) were prepared for use with the FLIPR Tetra device (Molecular Devices) as described before ([Claes et al., 2018]). The antagonistic properties of the compounds were calculated based on their capacity to inhibit the Ca^2+ release induced by a fixed concentration of chemokine (i.e. 50 ng/mL final concentration for CCL19, CXCL8 and CXCL12 and 100 ng/ml for LD78-β), as described ([Claes et al., 2018]). Exactly the same protocol was used to record calcium responses in Chinese hamster ovary (CHO)-K1 cells, upon stimulation with adenosine triphosphate (ATP, purchased from Sigma).

human CCR7 = biological target: T2, human CCR7 (Homo sapiens, UniProt P32248); experiment: CCL19-induced calcium mobilization assay, U87.CD4 cells expressing CCR7; assay type: cell-based
T2 construct: expressed in transfected cells
T2 sequence (P32248 25-378): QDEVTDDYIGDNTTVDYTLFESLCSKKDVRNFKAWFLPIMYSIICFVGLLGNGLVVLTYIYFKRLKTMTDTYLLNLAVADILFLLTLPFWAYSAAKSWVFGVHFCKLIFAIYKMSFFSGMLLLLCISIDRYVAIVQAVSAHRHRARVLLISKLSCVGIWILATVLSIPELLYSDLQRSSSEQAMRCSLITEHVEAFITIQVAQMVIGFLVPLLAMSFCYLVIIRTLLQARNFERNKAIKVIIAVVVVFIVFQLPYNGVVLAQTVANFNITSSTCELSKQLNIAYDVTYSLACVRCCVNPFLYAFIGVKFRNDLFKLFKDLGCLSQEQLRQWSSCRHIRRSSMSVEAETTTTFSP
Experimental: U87.CD4 cells that stably express either human CCR7, CXCR2, CCR5 or CXCR4 were seeded (20,000 cells/well) in gelatin-coated black-walled polystyrene 96-well plates with clear bottom and incubated overnight at 37°C and 5% CO2. […] Culture medium was removed, and cells were incubated for 45 min at room temperature in the dark. […] Exactly the same protocol was used to record calcium responses in Chinese hamster ovary (CHO)-K1 cells, upon stimulation with adenosine triphosphate (ATP, purchased from Sigma).

## Cc1ccc([C@@H](NC2=NS(=O)(=O)N=C2Nc2ccc(C)c(C(=O)N(C)C)c2O)C(C)(C)C)o1 [Cmp2105]
Human CCR5
  effect on CCR5 mediated calcium response: no (or only very limited) effect

## CC(C)(C)c1ccc(S(=O)(=O)Nc2ccc(Cl)cc2C(=O)c2cc[n+]([O-])cc2)cc1 [Vercirnon, reference compound]
Human CCR7; CCL19-induced, result in words
  CCR7 antagonism in calcium mobilization assay: absence of activity
Human CCR7; classification of tested compounds as decoy or active
  Decoy – 0 Active – 1: 0
